Results from PubChem BioAssay AID588538 (Sanford-Burnham Center for Chemical Genomics, 2011).
The list shows a part of the results, in another mix than the full data. Calls of active or inactive are those of the source. No rule for the calls is given here.

Assay: fluorescence interference of Apaf-1 inhibitor hits, dose response, artefact control for Apaf-1 inhibitor project (AID 588538)
Details: fluorescence interference counterscreen, Apaf-1 assay format

For `CC1=C2N=C(C=C3N=C(C(C)=C4[N-][C@@](C)([C@@H]5N=C1[C@](C)(CCC(=O)NC[C@@H](C)OP(=O)([O-])O[C@H]1[C@@H](O)[C@@H](n6cnc7cc(C)c(C)cc76)O[C@@H]1CO)[C@H]5CC(N)=O)[C@@](C)(CC(N)=O)[C@@H]4CCC(N)=O)[C@@](C)(CC(N)=O)[C@@H]3CCC(N)=O)C(C)(C)[C@@H]2CCC(N)=O.[C-]#N.[Co+3]`, the IC50 was inactive: > 100 µM.
